For this assay, the target named is T1, human transferrin receptor (hTfR) (Homo sapiens, UniProt P02786).
T1 construct: made in house
The assay can be described thus: Evaluation of molecular interaction between transferrin receptor (hTfR) and peptide using surface plasmon resonance (SPR). It is filed as binding. An outline of the steps: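 Recombinant human TfR dimer (0.5 μM) was captured on a Ni-charged NTA chip and amine-coupled with EDC/NHS, then ethanolamine-capped. Peptides at 5–100 nM in HEPES pH 8.0 buffer with 150 mM NaCl, 0.05% Tween 20, 0.1% BSA and 1.0% DMSO were run by single-cycle kinetics; KD came from least-squares curve fitting.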

Chains of the proteins cited; added tags and fusions are not shown. Residues count along the entry.
UniProt P02786, 89-760 limits assumed: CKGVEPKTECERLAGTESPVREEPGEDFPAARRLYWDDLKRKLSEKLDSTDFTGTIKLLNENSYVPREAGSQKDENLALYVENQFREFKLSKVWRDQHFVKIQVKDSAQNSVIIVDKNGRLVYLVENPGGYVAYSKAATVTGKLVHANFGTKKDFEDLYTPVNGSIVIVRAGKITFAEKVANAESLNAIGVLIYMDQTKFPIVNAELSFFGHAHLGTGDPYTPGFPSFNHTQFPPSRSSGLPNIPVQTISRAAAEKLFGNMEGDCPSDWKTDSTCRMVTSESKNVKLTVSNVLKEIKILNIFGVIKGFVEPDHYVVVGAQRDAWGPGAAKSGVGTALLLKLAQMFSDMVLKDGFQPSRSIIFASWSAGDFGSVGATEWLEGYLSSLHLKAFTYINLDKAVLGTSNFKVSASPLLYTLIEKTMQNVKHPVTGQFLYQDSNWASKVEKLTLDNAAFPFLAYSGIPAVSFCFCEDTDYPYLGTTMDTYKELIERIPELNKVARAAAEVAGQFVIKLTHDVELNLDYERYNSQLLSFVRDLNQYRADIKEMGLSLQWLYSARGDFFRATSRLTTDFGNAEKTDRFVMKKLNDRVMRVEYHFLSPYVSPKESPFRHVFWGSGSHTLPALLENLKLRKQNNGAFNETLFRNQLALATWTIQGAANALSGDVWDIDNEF

The mark [1] stands for this setting: KD class of peptide with linker binding to hTfR, by SPR (TABLE 5), read-out: SPR.
Where [2] appears, read: KD class of the peptide with linker for hTfR by surface plasmon resonance, read-out: SPR.

Where two headings read alike, the source gives them in different places.

Regarding `CC[C@H](C)[C@@H]1NC(=O)[C@H](Cc2ccc(OCC(=O)O)cc2)NC(=O)[C@H](Cc2ccc(O)cc2)NC(=O)[C@H](CC(N)=O)NC(=O)[C@H](Cc2cn(CC(=O)O)c3ccccc23)NC(=O)[C@H](C(C)C)NC(=O)[C@H](Cc2cccc(Cl)c2)N(C)C(=O)[C@H](C(C)C)NC(=O)[C@H](C)NC(=O)CSC[C@@H](C(=O)NCC(=O)NCC(=O)NCC(=O)NCC(=O)N[C@@H](CO)C(=O)N[C@@H](CO)C(=O)N[C@@H](CCCCNC(=O)C2CCC(CN3C(=O)C=CC3=O)CC2)C(N)=O)NC(=O)[C@H](Cc2ccc(O)cc2)N(C)C(=O)[C@H](Cc2cccc(C(=O)O)c2)NC(=O)[C@H](CCCNC(=N)N)NC(=O)[C@H](CCC(N)=O)NC(=O)[C@H]([C@@H](C)CC)NC1=O` (stereo partly drawn) [compound 291], the Kd (SPR, KD class of the peptide with linker for hTfR by surface plasmon resonance) lay in the range of 1 to 100 nM.

For `CC[C@H](C)[C@@H]1NC(=O)[C@H](Cc2ccc(OCC(=O)O)cc2)NC(=O)[C@H](Cc2ccc(O)cc2)NC(=O)[C@H](CC(N)=O)NC(=O)[C@H](Cc2cn(CC(=O)O)c3ccccc23)NC(=O)[C@H](C(C)C)NC(=O)[C@H](Cc2cccc(Cl)c2)N(C)C(=O)[C@H](C(C)C)NC(=O)[C@H](C)NC(=O)CSC[C@@H](C(=O)NCC(=O)N[C@@H](CCCCN=[N+]=[N-])C(N)=O)NC(=O)[C@H](Cc2ccc(O)cc2)N(C)C(=O)[C@H](Cc2ccncc2)NC(=O)[C@H](CCCCN2CCOCC2)NC(=O)[C@H](CCC(N)=O)NC(=O)[C@H]([C@@H](C)CC)NC1=O` [compound 351], the Kd under setting [1] lay in the range of 1 to 100 nM.

Turning to `CC[C@H](C)[C@@H]1NC(=O)[C@H](Cc2ccc(OCC(=O)O)cc2)NC(=O)[C@H](Cc2ccc(O)cc2)NC(=O)[C@H](CC(N)=O)NC(=O)[C@H](Cc2cn(CC(=O)O)c3ccccc23)NC(=O)[C@H](C(C)C)NC(=O)[C@H](Cc2cccc(Cl)c2)N(C)C(=O)[C@H](C(C)C)NC(=O)[C@H](C)NC(=O)CSC[C@@H](C(=O)NCC(=O)N[C@H](CO)C(=O)N[C@H](CO)C(=O)N[C@H](CCC(=O)O)C(=O)N[C@H](CO)C(=O)N[C@H](CO)C(=O)N[C@@H](CCCCNC(C)=O)C(N)=O)NC(=O)[C@H](Cc2ccc(O)cc2)N(C)C(=O)[C@H](Cc2ccccc2)NC(=O)[C@H](CCCNC(=N)N)NC(=O)[C@H](CCCNC(=N)N)NC(=O)[C@H]([C@@H](C)CC)NC1=O` [compound 316], the Kd under setting [1] lay in the range of 1 to 100 nM.

For `CC[C@H](C)[C@@H]1NC(=O)[C@H](Cc2ccc(OCC(=O)O)cc2)NC(=O)[C@H](Cc2ccc(O)cc2)NC(=O)[C@H](CC(N)=O)NC(=O)[C@H](Cc2cn(CC(=O)O)c3ccccc23)NC(=O)[C@H](C(C)C)NC(=O)[C@H](Cc2cccc(Cl)c2)N(C)C(=O)[C@H](C(C)C)NC(=O)[C@H](C)NC(=O)CSC[C@@H](C(=O)NCC(=O)N[C@H](CCC(=O)O)C(=O)N[C@H](CCC(=O)O)C(=O)N[C@H](CCC(=O)O)C(=O)N[C@H](CO)C(=O)N[C@H](CO)C(=O)N[C@@H](CCCCN=[N+]=[N-])C(N)=O)NC(=O)[C@H](Cc2ccc(O)cc2)N(C)C(=O)[C@H](Cc2ccncc2)NC(=O)[C@H](CCCCN2CCOCC2)NC(=O)[C@H](CCC(N)=O)NC(=O)[C@H]([C@@H](C)CC)NC1=O` [compound 346], the Kd under setting [1] lay within 1 to 100 nM.

Regarding `CC[C@H](C)[C@@H]1NC(=O)[C@H](Cc2ccc(OCC(=O)O)cc2)NC(=O)[C@H](Cc2ccc(N)nc2)NC(=O)[C@H](CC(N)=O)NC(=O)[C@H](Cc2c[nH]c3ccccc23)NC(=O)[C@H](C(C)C)NC(=O)[C@H](Cc2cccc(Cl)c2)N(C)C(=O)[C@H](C(C)C)NC(=O)[C@H](C)NC(=O)CSC[C@@H](C(=O)NCC(=O)NCC(=O)NCC(=O)NCC(=O)N[C@@H](CO)C(=O)N[C@@H](CO)C(=O)N[C@H](CCCCN)C(N)=O)NC(=O)[C@H](Cc2ccc(O)cc2)N(C)C(=O)[C@H](Cc2cccc(C(=O)O)c2)NC(=O)[C@H](CCCNC(=N)N)NC(=O)[C@H](CCC(=O)NCCOCCOCCOCCOCCOCCOCCOCCOC)NC(=O)[C@H]([C@@H](C)CC)NC1=O` [compound 338], under setting [1], the Kd was in the range of 1 to 100 nM.

For the compound `CC[C@H](C)[C@@H]1NC(=O)[C@H](Cc2ccc(OCC(=O)O)cc2)NC(=O)[C@H](Cc2ccc(O)cc2)NC(=O)[C@H](CC(N)=O)NC(=O)[C@H](Cc2cn(CC(=O)O)c3ccccc23)NC(=O)[C@H](C(C)C)NC(=O)[C@H](Cc2cccc(Cl)c2)N(C)C(=O)[C@H](C(C)C)NC(=O)[C@H](C)NC(=O)CSC[C@@H](C(=O)NCC(=O)N[C@H](CO)C(=O)N[C@H](CO)C(=O)N[C@H](CO)C(=O)N[C@H](CO)C(=O)N[C@H](CO)C(=O)N[C@H](CO)C(=O)N[C@H](CO)C(=O)N[C@H](CO)C(=O)N[C@H](CO)C(=O)N[C@H](CO)C(=O)N[C@@H](CCCCNC(C)=O)C(N)=O)NC(=O)[C@H](Cc2ccc(O)cc2)N(C)C(=O)[C@H](Cc2ccccc2)NC(=O)[C@H](CCCNC(=N)N)NC(=O)[C@H](CCCNC(=N)N)NC(=O)[C@H]([C@@H](C)CC)NC1=O` [compound 302], the Kd under setting [2] was in the range of 1 to 100 nM.

In the case of `CC[C@H](C)[C@@H]1NC(=O)[C@H](Cc2ccc(OCC(=O)O)cc2)NC(=O)[C@H](Cc2ccc(N)nc2)NC(=O)[C@H](CC(N)=O)NC(=O)[C@H](Cc2c[nH]c3ccccc23)NC(=O)[C@H](C(C)C)NC(=O)[C@H](Cc2cccc(Cl)c2)N(C)C(=O)[C@H](C(C)C)NC(=O)[C@H](C)NC(=O)CSC[C@@H](C(=O)NCC(=O)N[C@H](CO)C(=O)N[C@H](CO)C(=O)N[C@H](CO)C(=O)N[C@H](CO)C(=O)N[C@H](CO)C(=O)N[C@@H](CCCCN=[N+]=[N-])C(N)=O)NC(=O)[C@H](Cc2ccc(O)cc2)N(C)C(=O)[C@H](Cc2cccc(C(=O)O)c2)NC(=O)[C@H](CCCNC(=N)N)NC(=O)[C@H](CCC(=O)NCCOCCOCCOCCOCCOCCOCCOCCOC)NC(=O)[C@H]([C@@H](C)CC)NC1=O` [compound 335], under setting [1], the Kd was in the range of 1 to 100 nM.

For the compound `CC[C@H](C)[C@@H]1NC(=O)[C@H](Cc2ccc(OCC(=O)O)cc2)NC(=O)[C@H](Cc2ccc(N)nc2)NC(=O)[C@H](CC(N)=O)NC(=O)[C@H](Cc2c[nH]c3ncccc23)NC(=O)[C@H](C(C)C)NC(=O)[C@H](Cc2cccc(Cl)c2)N(C)C(=O)[C@H](C(C)C)NC(=O)[C@H](C)NC(=O)CSC[C@@H](C(=O)NCC(=O)N[C@H](CCC(=O)O)C(=O)N[C@H](CCC(=O)O)C(=O)N[C@H](CCC(=O)O)C(=O)N[C@H](CO)C(=O)N[C@H](CO)C(=O)N[C@@H](CCCCN=[N+]=[N-])C(N)=O)NC(=O)[C@H](Cc2ccc(O)cc2)N(C)C(=O)[C@H](Cc2cccc(C(=O)O)c2)NC(=O)[C@H](CCCNC(=N)N)NC(=O)[C@H](CCC(=O)NCCOCCOCCOCCOCCOCCOCCOCCOC)NC(=O)[C@H]([C@@H](C)CC)NC1=O` [compound 345], the Kd under setting [1] is 100 to 1000 nM.

Consider `CC[C@H](C)[C@@H]1NC(=O)[C@H](Cc2ccc(OCC(=O)O)cc2)NC(=O)[C@H](Cc2ccc(O)cc2)NC(=O)[C@H](CC(N)=O)NC(=O)[C@H](Cc2cn(CC(=O)O)c3ccccc23)NC(=O)[C@H](C(C)C)NC(=O)[C@H](Cc2cccc(Cl)c2)N(C)C(=O)[C@H](C(C)C)NC(=O)[C@H](C)NC(=O)CSC[C@@H](C(=O)NCC(=O)N[C@H](CO)C(=O)N[C@H](CCC(=O)O)C(=O)N[C@H](CCC(=O)O)C(=O)N[C@H](CO)C(=O)N[C@H](CO)C(=O)N[C@@H](CCCCNC(C)=O)C(N)=O)NC(=O)[C@H](Cc2ccc(O)cc2)N(C)C(=O)[C@H](Cc2ccccc2)NC(=O)[C@H](CCCNC(=N)N)NC(=O)[C@H](CCCNC(=N)N)NC(=O)[C@H]([C@@H](C)CC)NC1=O` [compound 320], for which, under setting [1], the Kd is 1 to 100 nM.

For `CC[C@H](C)[C@@H]1NC(=O)[C@H](Cc2ccc(OCC(=O)O)cc2)NC(=O)[C@H](Cc2ccc(O)cc2)NC(=O)[C@H](CC(N)=O)NC(=O)[C@H](Cc2cn(CC(=O)O)c3ccccc23)NC(=O)[C@H](C(C)C)NC(=O)[C@H](Cc2cccc(Cl)c2)N(C)C(=O)[C@H](C(C)C)NC(=O)[C@H](C)NC(=O)CSC[C@@H](C(=O)NCC(=O)N[C@H](CO)C(=O)N[C@H](CO)C(=O)N[C@H](CO)C(=O)N[C@H](CO)C(=O)N[C@H](CO)C(=O)N[C@@H](CCCCN=[N+]=[N-])C(N)=O)NC(=O)[C@H](Cc2ccc(O)cc2)N(C)C(=O)[C@H](Cc2ccncc2)NC(=O)[C@H](CCCNC(=N)N)NC(=O)[C@H](CCC(=O)NCCOCCOCCOCCOCCOCCOCCOCCOC)NC(=O)[C@H]([C@@H](C)CC)NC1=O` [compound 353], under setting [1], the Kd was 1 to 100 nM.

As for `CC[C@H](C)[C@@H]1NC(=O)[C@H](Cc2ccc(OCC(=O)O)cc2)NC(=O)[C@H](Cc2ccc(O)cc2)NC(=O)[C@H](CC(N)=O)NC(=O)[C@H](Cc2cn(CC(=O)O)c3ccccc23)NC(=O)[C@H](C(C)C)NC(=O)[C@H](Cc2cccc(Cl)c2)N(C)C(=O)[C@H](C(C)C)NC(=O)[C@H](C)NC(=O)CSC[C@@H](C(=O)NCC(=O)N[C@H](CO)C(=O)N[C@H](CO)C(=O)N[C@H](CO)C(=O)N[C@H](CO)C(=O)N[C@H](CO)C(=O)N[C@H](CO)C(=O)N[C@H](CO)C(=O)N[C@H](CO)C(=O)N[C@H](CO)C(=O)N[C@H](CO)C(=O)N[C@@H](CCCCN)C(N)=O)NC(=O)[C@H](Cc2ccc(O)cc2)N(C)C(=O)[C@H](Cc2ccccc2)NC(=O)[C@H](CCCNC(=N)N)NC(=O)[C@H](CCCNC(=N)N)NC(=O)[C@H]([C@@H](C)CC)NC1=O` [compound 284], under setting [2], the Kd fell in the range of 1 to 100 nM.

As to `CC[C@H](C)[C@@H]1NC(=O)[C@H](Cc2ccc(OCC(=O)O)cc2)NC(=O)[C@H](Cc2ccc(O)cc2)NC(=O)[C@H](CC(N)=O)NC(=O)[C@H](Cc2cn(CC(=O)O)c3ccccc23)NC(=O)[C@H](C(C)C)NC(=O)[C@H](Cc2cccc(Cl)c2)N(C)C(=O)[C@H](C(C)C)NC(=O)[C@H](C)NC(=O)CSC[C@@H](C(=O)NCC(=O)N[C@H](CO)C(=O)N[C@H](CCC(=O)O)C(=O)N[C@H](CO)C(=O)N[C@H](CO)C(=O)N[C@H](CO)C(=O)N[C@@H](CCCCNC(C)=O)C(N)=O)NC(=O)[C@H](Cc2ccc(O)cc2)N(C)C(=O)[C@H](Cc2ccccc2)NC(=O)[C@H](CCCNC(=N)N)NC(=O)[C@H](CCCNC(=N)N)NC(=O)[C@H]([C@@H](C)CC)NC1=O` [compound 323], under setting [1], the Kd is 1 to 100 nM.
